Assay [1] addresses human A1 adenosine receptor (Homo sapiens (Human), UniProt P30542). Nature of the assay: biochemical.
Assay [2] has as its target human A2a adenosine receptor (Homo sapiens (Human), UniProt P29274). Nature of the assay: biochemical.

Chains of the proteins cited; added tags and fusions are not shown.
UniProt P30542, whole entry: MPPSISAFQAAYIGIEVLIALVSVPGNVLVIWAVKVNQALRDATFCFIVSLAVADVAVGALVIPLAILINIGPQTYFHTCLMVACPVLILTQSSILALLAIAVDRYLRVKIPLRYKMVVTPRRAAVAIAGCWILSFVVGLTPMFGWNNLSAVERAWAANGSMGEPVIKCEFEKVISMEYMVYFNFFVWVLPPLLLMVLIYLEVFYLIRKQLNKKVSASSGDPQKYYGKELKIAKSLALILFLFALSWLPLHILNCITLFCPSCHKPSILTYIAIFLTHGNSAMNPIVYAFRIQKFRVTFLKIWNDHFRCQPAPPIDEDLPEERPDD

A word on the Ki: it is the dissociation constant of the complex between target and ligand, obtained from inhibition or displacement. Low readings indicate higher affinity, high ones lower affinity. In the case of `O[C@@H]1[C@H](O)CS[C@H]1c1cnc2c(NCCc3ccc(F)cc3)nccn12` [Compound 170, (2S,3R,4S)-2-(8-((4-fluorophenethyl)amino)imidazo[1,2-a]pyrazin-3-yl)tetrahydrothiophene-3,4-diol], the Ki in assay [1] and in assay [2] was more than 10 µM each time.

With `CNC(=O)c1ccc(CNc2nccn3c([C@@H]4SC[C@@H](O)[C@H]4O)nnc23)cc1F` [Compound 40, 4-(((3-((2S,3R,4S)-3,4-dihydroxytetrahydrothiophen-2-yl)-[1,2,4]triazolo[4,3-a]pyrazin-8-yl)amino)methyl)-2-fluoro-N-methylbenzamide], the Ki in assay [1] and in assay [2] was more than 10 µM in each case.

As to `O[C@@H]1[C@H](O)CS[C@H]1c1nnc2c(C#Cc3cccc(Cl)c3)nccn12` [Compound 30, (2S,3R,4S)-2-(8-((3-chlorophenyl)ethynyl)-[1,2,4]triazolo[4,3-a]pyrazin-3-yl)tetrahydrothiophene-3,4-diol], the Ki in assay [1] and in assay [2] was 1 to 10 µM in each case.

Consider `O[C@@H]1[C@H](O)CS[C@H]1c1cnc2c(NCc3ccncn3)nccn12` [Compound 145, (2S,3R,4S)-2-(8-((pyrimidin-4-ylmethyl)amino)imidazo[1,2-a]pyrazin-3-yl)tetrahydrothiophene-3,4-diol], for which the values for the Ki in assay [1] and in assay [2] were more than 10 µM and 1 to 10 µM, respectively.

In the case of `C[C@@H](Nc1nccn2c([C@@H]3SC[C@@H](O)[C@H]3O)nnc12)c1cccc(Cl)c1` [Compound 46, (2S,3R,4S)-2-(8-(((R)-1-(3-chlorophenyl)ethyl)amino)-[1,2,4]triazolo[4,3-a]pyrazin-3-yl)tetrahydrothiophene-3,4-diol], the Ki in assay [1] and in assay [2] was more than 10 µM each time.

Take `O[C@@H]1[C@H](O)CS[C@H]1c1nnc2c(NCc3cccc(F)c3)nccn12` [Compound 13, (2S,3R,4S)-2-(8-((3-fluorobenzyl)amino)-[1,2,4]triazolo[4,3-a]pyrazin-3-yl)tetrahydrothiophene-3,4-diol]: the Ki in assay [1] and in assay [2] was more than 10 µM throughout.

For the compound `O[C@@H]1[C@H](O)CS[C@H]1c1cnc2c(NCc3ccc(Cl)cc3)nccn12` [Compound 164, (2S,3R,4S)-2-(8-((4-chlorobenzyl)amino)imidazo[1,2-a]pyrazin-3-yl)tetrahydrothiophene-3,4-diol], the Ki in assay [1] and in assay [2] was more than 10 µM each time.

In the case of `Cc1cccc(CNc2nccn3c([C@@H]4SC[C@@H](O)[C@H]4O)cnc23)c1` [Compound 121, (2S,3R,4S)-2-(8-((3-methylbenzyl)amino)imidazo[1,2-a]pyrazin-3-yl)tetrahydrothiophene-3,4-diol], the Ki in assay [1] and in assay [2] was more than 10 µM each time.

For `O[C@@H]1[C@H](O)CS[C@H]1c1cnc2c(NCc3ccccc3I)nccn12` [Compound 168, (2S,3R,4S)-2-(8-((2-iodobenzyl)amino)imidazo[1,2-a]pyrazin-3-yl)tetrahydrothiophene-3,4-diol], the Ki in assay [1] and in assay [2] was more than 10 µM throughout.

As for `O[C@@H]1[C@H](O)CS[C@H]1c1cnc2c(NCc3cc(Cl)cc(Cl)c3)nccn12` [Compound 184, (2S,3R,4S)-2-(8-((3,5-dichlorobenzyl)amino)imidazo[1,2-a]pyrazin-3-yl)tetrahydrothiophene-3,4-diol], the Ki was more than 10 µM in assay [1] and 1 to 10 µM in assay [2].

On to `CC(C)CCNc1nccn2c([C@@H]3SC[C@@H](O)[C@H]3O)nnc12` [Compound 32, (2S,3R,4S)-2-(8-(isopentylamino)-[1,2,4]triazolo[4,3-a]pyrazin-3-yl)tetrahydrothiophene-3,4-diol], for which the Ki in assay [1] and in assay [2] was more than 10 µM in each case.

In the case of `C[C@H](Nc1nccn2c([C@@H]3SC[C@@H](O)[C@H]3O)cnc12)c1cccc(Cl)c1` [Compound 161, (2S,3R,4S)-2-(8-(((S)-1-(3-chlorophenyl)ethyl)amino)imidazo[1,2-a]pyrazin-3-yl)tetrahydrothiophene-3,4-diol], the Ki is more than 10 µM in assay [1] and 1 to 10 µM in assay [2].

For the origin of these results see patent US10196396B2 (priority 2016, dated 2019).
